The record followed here is patent publication US9783573B2, “IAP antagonists” (BRISTOL-MYERS SQUIBB COMPANY, priority 2012, dated 2017).

As usually defined, the IC50 is the point on the concentration scale where inhibition reaches its midpoint.

The target in the assay is His-BIR2 (124-240/C202A/C213G) (Homo sapiens (Human), UniProt P98170, C202A/C213G). Particulars: read-out: XIAP-BIR2 AlphaScreen IC50, Biotinylated SMAC peptide.

As for `CN[C@@H](C)C(=O)N[C@H](C(=O)N1Cc2cc(NC(=O)c3ccc(CCC(=O)N[C@H]4C[C@@H](C(=O)N[C@@H]5CCCc6ccccc65)N(C(=O)[C@@H](NC(=O)[C@H](C)NC)C(C)(C)C)C4)cc3)ccc2C[C@H]1C(=O)N[C@@H]1CCCc2ccccc21)C(C)(C)C` [Example 9, (S)-2-((S)-3,3-Dimethyl-2-((S)-2-(methylamino)propanamido)butanoyl)-7-(4-(3-(((3S,5S)-1-((S)-3,3-dimethyl-2-((S)-2-(methylamino)propanamido)butanoyl)-5-(((R)-1,2,3,4-tetrahydronaphthalen-1-yl)carbamoyl)pyrrolidin-3-yl)amino)-3-oxopropyl)benzamido)-N-((R)-1,2,3,4-tetrahydronaphthalen-1-yl)-1,2,3,4-tetrahydroisoquinoline-3-carboxamide], the IC50 amounted to 260 nM.

`CN[C@@H](C)C(=O)N[C@H](C(=O)N1Cc2cc(NC(=O)c3ccc(C(=O)Nc4ccc5c(c4)CN(C(=O)[C@@H](NC(=O)[C@H](C)NC)C(C)(C)C)[C@H](C(=O)N[C@H](C)c4ccccc4F)C5)cc3)ccc2C[C@H]1C(=O)N[C@H](C)c1ccccc1F)C(C)(C)C` [Example 12, N^1,N^4-bis((S)-2-((S)-3,3-Dimethyl-2-((S)-2-(methylamino)propanamido)butanoyl)-3-(((R)-1-(2-fluorophenyl)ethyl)carbamoyl)-1,2,3,4-tetrahydroisoquinolin-7-yl)terephthalamide]: the IC50 came out at 2000 nM.

`CN[C@@H](C)C(=O)N[C@H](C(=O)N1Cc2cc(NC(=O)c3ccc(C(=O)Nc4ccc5c(c4)CN(C(=O)[C@@H](NC(=O)[C@H](C)NC)C(C)(C)C)[C@H](C(=O)N[C@@H](COC)c4ccccc4)C5)cc3)ccc2C[C@H]1C(=O)N[C@@H](COC)c1ccccc1)C(C)(C)C` [Example 14, N^1,N^4-bis((S)-2-((S)-3,3-Dimethyl-2-((S)-2-(methylamino)propanamido)butanoyl)-3-(((R)-2-methoxy-1-phenylethyl)carbamoyl)-1,2,3,4-tetrahydroisoquinolin-7-yl)terephthalamide]: the IC50 stood at 2000 nM.

As to `CC[C@H](NC)C(=O)N[C@H](C(=O)N1Cc2cc(NC(=O)c3ccc(C(=O)N[C@H]4C[C@@H](C(=O)N[C@@H]5CCCc6ccccc65)N(C(=O)[C@@H](NC(=O)[C@H](C)NC)C(C)(C)C)C4)cc3)ccc2C[C@H]1C(=O)N[C@@H]1CCCc2ccccc21)C(C)(C)C` [Example 15, N^1-((S)-2-((S)-3,3-Dimethyl-2-((S)-2-(methylamino)butanamido)butanoyl)-3-(((R)-1,2,3,4-tetrahydronaphthalen-1-yl)carbamoyl)-1,2,3,4-tetrahydroisoquinolin-7-yl)-N^4-((3S,5S)-1-((S)-3,3-dimethyl-2-((S)-2-(methylamino)propanamido)butanoyl)-5-(((R)-1,2,3,4-tetrahydronaphthalen-1-yl)carbamoyl)pyrrolidin-3-yl)terephthalamide], the IC50 turned out to be 220 nM.

As for `CN[C@@H](C)C(=O)N[C@H](C(=O)N1Cc2cc(NC(=O)C(F)(F)C(F)(F)C(=O)N[C@H]3C[C@@H](C(=O)N[C@@H]4CCCc5ccccc54)N(C(=O)[C@@H](NC(=O)[C@H](C)NC)C(C)(C)C)C3)ccc2C[C@H]1C(=O)N[C@@H]1CCCc2ccccc21)C(C)(C)C` [Example 17, N^1—((S)-2-((S)-3,3-Dimethyl-2-((S)-2-(methylamino)propanamido)butanoyl)-3-(((R)-1,2,3,4-tetrahydronaphthalen-1-yl)carbamoyl)-1,2,3,4-tetrahydroisoquinolin-7-yl)-N^4-((3S,5S)-1-((S)-3,3-dimethyl-2-((S)-2-(methylamino)propanamido)butanoyl)-5-(((R)-1,2,3,4-tetrahydronaphthalen-1-yl)carbamoyl)pyrrolidin-3-yl)-2,2,3,3-tetrafluorosuccinamide], the IC50 amounted to 110 nM.

`CN[C@@H](C)C(=O)N[C@H](C(=O)N1Cc2cc(C(=O)Nc3ccc(C(=O)N[C@H]4C[C@@H](C(=O)N[C@@H]5CCCc6ccccc65)N(C(=O)[C@@H](NC(=O)[C@H](C)NC)C(C)(C)C)C4)cc3)ccc2C[C@H]1C(=O)N[C@@H]1CCCc2ccccc21)C(C)(C)C` [Example 27, (S)-2-((S)-3,3-Dimethyl-2-((S)-2-(methylamino)propanamido)butanoyl)-N^7-(4-(((3S,5S)-1-((S)-3,3-dimethyl-2-((S)-2-(methylamino)propanamido)butanoyl)-5-(((R)-1,2,3,4-tetrahydronaphthalen-1-yl)carbamoyl)pyrrolidin-3-yl)carbamoyl)phenyl)-N^3—((R)-1,2,3,4-tetrahydronaphthalen-1-yl)-1,2,3,4-tetrahydroisoquinoline-3,7-dicarboxamide]: the IC50 is 120 nM.

Consider `CN[C@@H](C)C(=O)N[C@H](C(=O)N1Cc2cc(C(=O)NC3(C(=O)N[C@H]4C[C@@H](C(=O)N[C@@H]5CCCc6ccccc65)N(C(=O)[C@@H](NC(=O)[C@H](C)NC)C(C)(C)C)C4)CC3)ccc2C[C@H]1C(=O)N[C@@H]1CCCc2ccccc21)C(C)(C)C` [Example 28, (S)-2-((S)-3,3-Dimethyl-2-((S)-2-(methylamino)propanamido)butanoyl)-N7-(1-(((3S,5S)-1-((S)-3,3-dimethyl-2-((S)-2-(methylamino)propanamido)butanoyl)-5-(((R)-1,2,3,4-tetrahydronaphthalen-1-yl)carbamoyl)pyrrolidin-3-yl)carbamoyl)cyclopropyl)-N3((R)-1,2,3,4-tetrahydronaphthalen-1-yl)-1,2,3,4-tetrahydroisoquinoline-3,7-dicarboxamide], for which the IC50 is 900 nM.

For `CN[C@@H](C)C(=O)N[C@H](C(=O)N1Cc2cc(C(=O)NC(C)(C)C(=O)N[C@H]3C[C@@H](C(=O)N[C@@H]4CCCc5ccccc54)N(C(=O)[C@@H](NC(=O)[C@H](C)NC)C(C)(C)C)C3)ccc2C[C@H]1C(=O)N[C@@H]1CCCc2ccccc21)C(C)(C)C` [Example 29, (S)-2-((S)-3,3-Dimethyl-2-((S)-2-(methylamino)propanamido)butanoyl)-N7-(1-(((3S,5S)-1-((S)-3,3-dimethyl-2-((S)-2-(methylamino)propanamido)butanoyl)-5-(((R)-1,2,3,4-tetrahydronaphthalen-1-yl)carbamoyl)pyrrolidin-3-yl)amino)-2-methyl-1-oxopropan-2-yl)-N3-((R)-1,2,3,4-tetrahydronaphthalen-1-yl)-1,2,3,4-tetrahydroisoquinoline-3,7-dicarboxamide], the IC50 is 180 nM.

For the molecule `CN[C@@H](C)C(=O)N[C@H](C(=O)N1CC[C@@H](OCc2ccc(C(=O)N[C@H]3C[C@@H](C(=O)N[C@@H]4CCCc5ccccc54)N(C(=O)[C@@H](NC(=O)[C@H](C)NC)C(C)(C)C)C3)cc2)C[C@H]1C(=O)N[C@@H]1CCCc2ccccc21)C(C)(C)C` [Example 30, (2S,4R)-1-((S)-3,3-Dimethyl-2-((S)-2-(methylamino)propanamido)butanoyl)-4-((4-(((3S,5S)-1-((S)-3,3-dimethyl-2-((S)-2-(methylamino)propanamido)butanoyl)-5-(((R)-1,2,3,4-tetrahydronaphthalen-1-yl)carbamoyl)pyrrolidin-3-yl)carbamoyl)benzyl)oxy)-N—((R)-1,2,3,4-tetrahydronaphthalen-1-yl)piperidine-2-carboxamide], the IC50 stood at 110 nM.
